Results published in patent US8975247B2, “Methods and compositions of treating a flaviviridae family viral infection” (priority 2009, dated 2015).

Test system: Huh7.5 cells
Type: cell-based
Details: human, 3 days
Experimental: Make a common stock from all tubes. […] 15) Incubate for 24 hr before treatment.
3) Repeat daily for 2 more days.
The results are reported as % cell survival.

Row | Structure (SMILES) | 2a Cell Viability @ 5 μM
1 | OCc1nc2ccccc2n1Cc1ccc(Br)cc1 [EBP059] | 86%
2 | COC(=O)c1ccc(Cn2cnc3ccccc32)cc1 [EBP062] | 89%
